# Experimental data from patent publication US20200323802A1, “SUPPORTING IMMUNOMODULATORY AGENT” (Flexopharm Brain GMBH & Go. KG, priority 2015, published 2020).
# System: Treg cells
# Test: Treg cells in MS patients before and after 14 days of treatment with sodium propionate plus MS drug
# Assay type: in vivo, human
# Conditions: pooled comparison group, patient-specific dose of the MS drug together with sodium propionate 2×0.5 g daily, before vs after 14 days, FIG. 6
# Text: The disproportionate increase in the amount of Treg cells signifies a corresponding reduction in the autoimmune response. Fumarates and short-chain fat carboxylates work together synergistically.
molecule,measurement,value
"interferon beta: established agent for the treatment of MS, given together with sodium propionate (protein, UniProt P01574 22-187, looked up) Interferon beta: MSYNLLGFLQRSSNFQCQKLLWQLNGRLEYCLKDRMNFDIPEEIKQLQQFQKEDAALTIYEMLQNIFAIFRQDSSSTGWNETIVENLLANVYHQINHLKTVLEEKLEKEDFTRGKLMSSLHLKRYYGRILHYLKAKEYSHCAWTIVRVEILRNFYFINRLTGYLRN",increase in number of Treg cells by a factor,1.1
